{"sequences": {"note": "Chains of the proteins cited; added tags and fusions are not shown. Lines headed by an entry give the natural chain unless they say otherwise; changes in a name come on top. Residues count along the entry.", "UniProt O14976": "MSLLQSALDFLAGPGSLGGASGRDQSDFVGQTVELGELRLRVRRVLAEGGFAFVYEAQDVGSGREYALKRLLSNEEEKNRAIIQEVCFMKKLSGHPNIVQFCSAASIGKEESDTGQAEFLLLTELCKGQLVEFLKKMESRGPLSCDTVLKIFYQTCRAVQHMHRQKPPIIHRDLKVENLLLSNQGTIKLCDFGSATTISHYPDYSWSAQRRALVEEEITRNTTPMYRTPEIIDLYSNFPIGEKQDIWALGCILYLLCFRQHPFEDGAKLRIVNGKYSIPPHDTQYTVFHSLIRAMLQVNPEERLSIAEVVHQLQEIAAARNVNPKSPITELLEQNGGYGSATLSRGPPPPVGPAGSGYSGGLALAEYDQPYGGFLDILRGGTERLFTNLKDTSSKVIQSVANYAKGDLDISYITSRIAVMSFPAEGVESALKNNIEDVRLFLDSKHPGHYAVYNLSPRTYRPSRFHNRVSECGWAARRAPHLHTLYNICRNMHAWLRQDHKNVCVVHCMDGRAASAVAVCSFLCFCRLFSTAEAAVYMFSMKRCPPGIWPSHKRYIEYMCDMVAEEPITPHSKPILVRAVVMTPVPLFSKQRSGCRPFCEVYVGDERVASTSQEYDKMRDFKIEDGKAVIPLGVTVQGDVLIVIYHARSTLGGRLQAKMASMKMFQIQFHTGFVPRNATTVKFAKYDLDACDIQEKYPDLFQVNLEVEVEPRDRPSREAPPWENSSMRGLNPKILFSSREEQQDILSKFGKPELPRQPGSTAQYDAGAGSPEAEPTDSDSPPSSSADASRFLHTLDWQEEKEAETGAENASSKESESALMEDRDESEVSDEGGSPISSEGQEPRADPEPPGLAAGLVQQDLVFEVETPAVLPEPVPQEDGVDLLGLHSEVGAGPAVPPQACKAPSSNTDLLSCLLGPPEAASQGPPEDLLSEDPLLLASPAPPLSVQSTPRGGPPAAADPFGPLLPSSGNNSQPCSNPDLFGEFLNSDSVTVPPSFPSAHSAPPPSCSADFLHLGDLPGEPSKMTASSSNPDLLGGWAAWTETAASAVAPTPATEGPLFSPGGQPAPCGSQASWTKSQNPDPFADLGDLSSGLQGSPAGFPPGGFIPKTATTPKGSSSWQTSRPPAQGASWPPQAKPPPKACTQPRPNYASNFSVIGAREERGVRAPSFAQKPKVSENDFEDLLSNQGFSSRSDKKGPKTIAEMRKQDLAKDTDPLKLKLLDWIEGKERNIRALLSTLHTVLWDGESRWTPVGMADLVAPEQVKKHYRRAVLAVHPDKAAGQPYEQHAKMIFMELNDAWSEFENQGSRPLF", "UniProt P29323, 19-1055": "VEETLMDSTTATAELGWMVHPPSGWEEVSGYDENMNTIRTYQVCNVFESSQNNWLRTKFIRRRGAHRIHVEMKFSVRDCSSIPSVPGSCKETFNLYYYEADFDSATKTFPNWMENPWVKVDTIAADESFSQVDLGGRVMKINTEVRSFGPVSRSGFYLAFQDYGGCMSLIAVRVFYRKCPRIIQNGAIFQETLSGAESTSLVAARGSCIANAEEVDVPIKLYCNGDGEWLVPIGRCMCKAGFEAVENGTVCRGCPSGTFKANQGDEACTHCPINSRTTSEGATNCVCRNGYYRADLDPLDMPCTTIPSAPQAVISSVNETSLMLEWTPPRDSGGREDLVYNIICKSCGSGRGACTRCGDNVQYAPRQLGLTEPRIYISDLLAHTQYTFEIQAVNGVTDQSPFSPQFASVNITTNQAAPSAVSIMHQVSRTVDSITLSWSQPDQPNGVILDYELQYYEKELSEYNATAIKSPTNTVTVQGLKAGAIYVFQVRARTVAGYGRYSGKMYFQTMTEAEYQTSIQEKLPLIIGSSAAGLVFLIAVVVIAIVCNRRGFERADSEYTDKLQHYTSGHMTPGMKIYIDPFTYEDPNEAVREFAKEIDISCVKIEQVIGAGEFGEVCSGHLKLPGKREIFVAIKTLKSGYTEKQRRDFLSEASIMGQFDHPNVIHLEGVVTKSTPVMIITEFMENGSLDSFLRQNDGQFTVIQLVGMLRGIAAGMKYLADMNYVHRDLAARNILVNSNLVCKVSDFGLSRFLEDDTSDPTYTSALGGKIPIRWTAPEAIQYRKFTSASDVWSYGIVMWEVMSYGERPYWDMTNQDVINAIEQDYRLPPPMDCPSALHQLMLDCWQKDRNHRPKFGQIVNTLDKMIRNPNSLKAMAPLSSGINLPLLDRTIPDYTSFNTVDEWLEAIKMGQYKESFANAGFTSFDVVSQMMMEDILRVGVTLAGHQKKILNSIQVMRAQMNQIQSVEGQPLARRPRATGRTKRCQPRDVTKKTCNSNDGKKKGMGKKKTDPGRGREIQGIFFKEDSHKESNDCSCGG", "UniProt P48729": "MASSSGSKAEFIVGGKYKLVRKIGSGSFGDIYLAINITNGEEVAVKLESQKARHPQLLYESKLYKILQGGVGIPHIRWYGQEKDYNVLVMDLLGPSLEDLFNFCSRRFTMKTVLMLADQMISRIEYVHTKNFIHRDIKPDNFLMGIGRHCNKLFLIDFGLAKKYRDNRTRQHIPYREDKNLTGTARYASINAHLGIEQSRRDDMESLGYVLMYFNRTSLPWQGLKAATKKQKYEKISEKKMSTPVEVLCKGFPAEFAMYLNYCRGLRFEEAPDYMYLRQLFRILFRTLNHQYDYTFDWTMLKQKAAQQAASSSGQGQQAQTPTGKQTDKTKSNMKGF", "UniProt Q00535, whole entry": "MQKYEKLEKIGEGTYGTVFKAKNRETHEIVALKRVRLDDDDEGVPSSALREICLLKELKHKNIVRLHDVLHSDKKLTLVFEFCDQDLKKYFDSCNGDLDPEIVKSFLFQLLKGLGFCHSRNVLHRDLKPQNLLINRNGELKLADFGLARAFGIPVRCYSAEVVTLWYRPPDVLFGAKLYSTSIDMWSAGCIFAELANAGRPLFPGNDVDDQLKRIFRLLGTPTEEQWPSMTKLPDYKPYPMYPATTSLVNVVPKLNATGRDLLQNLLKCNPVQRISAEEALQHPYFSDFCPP", "UniProt Q15059, whole entry": "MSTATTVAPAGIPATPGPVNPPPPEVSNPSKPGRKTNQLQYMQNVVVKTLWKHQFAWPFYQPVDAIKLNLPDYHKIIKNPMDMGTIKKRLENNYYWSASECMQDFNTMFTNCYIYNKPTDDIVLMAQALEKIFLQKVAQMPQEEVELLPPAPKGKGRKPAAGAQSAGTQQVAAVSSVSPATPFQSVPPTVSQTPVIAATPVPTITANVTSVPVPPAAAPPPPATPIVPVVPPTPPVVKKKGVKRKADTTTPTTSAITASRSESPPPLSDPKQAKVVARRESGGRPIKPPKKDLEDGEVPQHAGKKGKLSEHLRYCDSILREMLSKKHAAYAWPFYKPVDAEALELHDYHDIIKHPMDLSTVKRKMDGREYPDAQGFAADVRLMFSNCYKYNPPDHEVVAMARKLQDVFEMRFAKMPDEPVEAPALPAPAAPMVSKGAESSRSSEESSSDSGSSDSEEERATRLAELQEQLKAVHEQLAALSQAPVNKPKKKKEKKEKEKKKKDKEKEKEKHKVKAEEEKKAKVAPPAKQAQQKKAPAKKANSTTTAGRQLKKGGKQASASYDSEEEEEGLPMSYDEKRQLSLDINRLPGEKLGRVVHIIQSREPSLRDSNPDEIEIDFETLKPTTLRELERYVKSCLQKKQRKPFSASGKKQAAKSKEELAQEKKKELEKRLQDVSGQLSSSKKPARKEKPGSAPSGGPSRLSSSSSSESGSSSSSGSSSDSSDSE", "UniProt Q7KZI7": "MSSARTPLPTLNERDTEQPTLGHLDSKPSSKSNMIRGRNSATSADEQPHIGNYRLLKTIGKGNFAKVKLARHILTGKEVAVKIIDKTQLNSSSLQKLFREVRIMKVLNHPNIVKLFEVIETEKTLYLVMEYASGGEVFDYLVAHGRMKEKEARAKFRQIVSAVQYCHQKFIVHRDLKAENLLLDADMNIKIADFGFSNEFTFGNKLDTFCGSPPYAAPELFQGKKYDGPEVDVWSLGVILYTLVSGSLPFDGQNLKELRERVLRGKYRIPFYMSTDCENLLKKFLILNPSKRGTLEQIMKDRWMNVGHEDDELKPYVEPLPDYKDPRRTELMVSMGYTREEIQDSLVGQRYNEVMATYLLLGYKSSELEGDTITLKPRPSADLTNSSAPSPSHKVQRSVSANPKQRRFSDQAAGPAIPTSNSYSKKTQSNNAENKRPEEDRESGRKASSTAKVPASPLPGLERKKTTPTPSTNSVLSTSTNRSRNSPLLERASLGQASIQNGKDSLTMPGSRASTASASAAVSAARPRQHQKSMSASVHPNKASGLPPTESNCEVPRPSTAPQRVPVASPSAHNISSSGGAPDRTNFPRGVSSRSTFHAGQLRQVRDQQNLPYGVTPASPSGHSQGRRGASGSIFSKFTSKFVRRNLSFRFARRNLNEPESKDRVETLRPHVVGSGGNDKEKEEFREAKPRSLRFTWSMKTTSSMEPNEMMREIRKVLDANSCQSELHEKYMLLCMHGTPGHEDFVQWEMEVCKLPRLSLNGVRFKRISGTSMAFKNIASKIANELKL"}, "source": "patent US8959984B2", "about": "“Proteome-wide quantification of small molecule binding to cellular target proteins” (priority 2007, dated 2015)", "assay_in_all_cases": "Ki determination for immobilized VI16742: two consecutive incubations, control beads, ligand concentration and incubation time controls (Tables 7, 8)", "assay_type_in_all_cases": "binding", "key": {"[1]": {"target": "T1, cellular target proteins in HeLa cell lysate (Homo sapiens, UniProt O00141)", "T1 sequence (O00141 1-431)": "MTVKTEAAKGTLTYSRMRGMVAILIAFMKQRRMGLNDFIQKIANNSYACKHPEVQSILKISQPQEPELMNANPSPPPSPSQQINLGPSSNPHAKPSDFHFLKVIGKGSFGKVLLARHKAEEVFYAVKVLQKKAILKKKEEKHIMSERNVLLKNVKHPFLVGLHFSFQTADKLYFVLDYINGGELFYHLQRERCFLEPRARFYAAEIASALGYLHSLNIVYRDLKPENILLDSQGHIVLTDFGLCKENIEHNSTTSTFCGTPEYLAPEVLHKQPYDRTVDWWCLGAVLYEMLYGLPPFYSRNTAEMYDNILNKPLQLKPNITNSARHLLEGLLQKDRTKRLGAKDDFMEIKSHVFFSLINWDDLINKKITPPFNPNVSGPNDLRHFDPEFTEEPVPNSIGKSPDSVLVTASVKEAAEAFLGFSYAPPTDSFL", "conditions": "Ki (VI16742), SGK IPI00479349"}, "[2]": {"target": "T2, cellular target proteins in HeLa cell lysate (Homo sapiens, UniProt O00764)", "T2 sequence (O00764 1-312)": "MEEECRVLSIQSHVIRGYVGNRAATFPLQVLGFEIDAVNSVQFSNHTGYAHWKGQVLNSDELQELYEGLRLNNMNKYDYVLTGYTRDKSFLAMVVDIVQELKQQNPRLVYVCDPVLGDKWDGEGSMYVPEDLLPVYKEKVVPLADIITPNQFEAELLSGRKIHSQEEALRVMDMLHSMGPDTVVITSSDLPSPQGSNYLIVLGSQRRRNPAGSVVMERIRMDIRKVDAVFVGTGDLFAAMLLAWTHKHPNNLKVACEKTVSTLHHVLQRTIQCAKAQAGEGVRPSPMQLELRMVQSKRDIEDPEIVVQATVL", "conditions": "Ki (VI16742), PDXK IPI00013004"}, "[3]": {"target": "cellular target proteins in HeLa cell lysate (Homo sapiens, UniProt O14976)", "conditions": "Ki (VI16742), GAK IPI00298949"}, "[4]": {"target": "cellular target proteins in HeLa cell lysate (Homo sapiens, UniProt P29323)", "conditions": "Ki (VI16742), EphB2 (EPHB2) IPI00021275"}, "[5]": {"target": "cellular target proteins in HeLa cell lysate (Homo sapiens, UniProt P48729)", "conditions": "Ki (VI16742), CSNK1A1 IPI00790374"}, "[6]": {"target": "cellular target proteins in HeLa cell lysate (Homo sapiens, UniProt Q00535)", "conditions": "Ki (VI16742), CDK5 IPI00023530"}, "[7]": {"target": "T3, cellular target proteins in HeLa cell lysate (Homo sapiens, UniProt Q13163)", "T3 sequence (Q13163 1-448)": "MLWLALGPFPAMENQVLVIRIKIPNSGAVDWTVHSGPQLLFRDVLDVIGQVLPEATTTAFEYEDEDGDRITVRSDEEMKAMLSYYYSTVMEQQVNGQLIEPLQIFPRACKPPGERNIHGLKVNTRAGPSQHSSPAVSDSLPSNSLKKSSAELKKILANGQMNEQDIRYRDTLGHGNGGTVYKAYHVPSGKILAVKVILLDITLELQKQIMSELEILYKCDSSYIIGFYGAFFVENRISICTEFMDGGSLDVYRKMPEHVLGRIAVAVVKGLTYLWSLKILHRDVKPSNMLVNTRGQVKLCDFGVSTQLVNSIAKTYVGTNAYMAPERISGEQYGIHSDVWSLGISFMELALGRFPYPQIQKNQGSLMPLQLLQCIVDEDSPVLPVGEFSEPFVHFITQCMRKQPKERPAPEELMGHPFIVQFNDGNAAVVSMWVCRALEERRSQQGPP", "conditions": "Ki (VI16742), MAP2K5 IPI00185860"}, "[8]": {"target": "cellular target proteins in HeLa cell lysate (Homo sapiens, UniProt Q15059)", "conditions": "Ki (VI16742), BRD3 IPI00014266"}, "[9]": {"target": "cellular target proteins in HeLa cell lysate (Homo sapiens, UniProt Q7KZI7)", "conditions": "Ki (VI16742), MARK2 IPI00555838"}}, "data": [{"smiles": "CC(C)n1c(=O)ccc2cnc(Nc3ccc(OCCN)cc3)nc21", "note": "[V16742]", "values": [{"measurement": "Ki", "setting": "[1]", "value": 23.7, "unit": "µM"}, {"measurement": "Ki", "setting": "[2]", "value": 4.65, "unit": "µM"}, {"measurement": "Ki", "setting": "[3]", "value": 28.6, "unit": "µM"}, {"measurement": "Ki", "setting": "[4]", "value": 41.5, "unit": "µM"}, {"measurement": "Ki", "setting": "[5]", "value": 19.5, "unit": "µM"}, {"measurement": "Ki", "setting": "[6]", "value": 3.75, "unit": "µM"}, {"measurement": "Ki", "setting": "[7]", "value": 17.6, "unit": "µM"}, {"measurement": "Ki", "setting": "[8]", "value": 29.4, "unit": "µM"}, {"measurement": "Ki", "setting": "[9]", "value": 17, "unit": "µM"}]}]}
